Literature values, collected in patent publication US20140161785A1, “Verticillin A Inhibition of Histone Methyltransferases” (priority 2012, published 2014).

Molecular target: T1, G9a (Homo sapiens, UniProt Q96KQ7)
T1 sequence (Q96KQ7 1-1210): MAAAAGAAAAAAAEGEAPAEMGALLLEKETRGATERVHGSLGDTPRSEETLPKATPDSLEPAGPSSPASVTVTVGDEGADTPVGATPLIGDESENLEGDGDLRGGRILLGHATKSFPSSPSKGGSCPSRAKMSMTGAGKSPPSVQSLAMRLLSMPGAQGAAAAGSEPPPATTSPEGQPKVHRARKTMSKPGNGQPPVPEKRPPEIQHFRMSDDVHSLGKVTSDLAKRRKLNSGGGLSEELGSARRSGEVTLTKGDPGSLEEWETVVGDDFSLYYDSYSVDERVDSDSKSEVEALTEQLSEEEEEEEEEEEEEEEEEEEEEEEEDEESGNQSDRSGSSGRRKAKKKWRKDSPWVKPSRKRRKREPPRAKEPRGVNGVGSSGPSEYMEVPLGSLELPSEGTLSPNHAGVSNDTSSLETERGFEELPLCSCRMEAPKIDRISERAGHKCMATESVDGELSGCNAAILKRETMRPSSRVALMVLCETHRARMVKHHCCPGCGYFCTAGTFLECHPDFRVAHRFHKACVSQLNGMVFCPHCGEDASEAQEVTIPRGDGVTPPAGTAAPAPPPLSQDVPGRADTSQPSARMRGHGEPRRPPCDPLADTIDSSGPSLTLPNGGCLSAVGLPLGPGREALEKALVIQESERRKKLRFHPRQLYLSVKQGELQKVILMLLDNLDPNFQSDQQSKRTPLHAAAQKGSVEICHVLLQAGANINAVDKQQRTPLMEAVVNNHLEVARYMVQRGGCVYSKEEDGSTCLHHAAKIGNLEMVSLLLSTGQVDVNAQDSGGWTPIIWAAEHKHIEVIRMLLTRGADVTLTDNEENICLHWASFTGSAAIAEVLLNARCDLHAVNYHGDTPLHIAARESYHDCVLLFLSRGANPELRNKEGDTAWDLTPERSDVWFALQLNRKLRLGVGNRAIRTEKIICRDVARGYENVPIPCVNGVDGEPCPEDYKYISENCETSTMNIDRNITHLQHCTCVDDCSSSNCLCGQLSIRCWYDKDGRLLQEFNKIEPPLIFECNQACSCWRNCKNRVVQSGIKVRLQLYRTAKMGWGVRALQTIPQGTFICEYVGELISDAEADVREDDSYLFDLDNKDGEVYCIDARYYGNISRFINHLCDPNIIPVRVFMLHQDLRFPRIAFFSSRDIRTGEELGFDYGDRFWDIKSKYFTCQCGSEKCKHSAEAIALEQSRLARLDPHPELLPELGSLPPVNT
Settings: background statement; cited from earlier work

SMILES: COc1cc2c(NC3CCN(C)CC3)nc(N3CCCN(C)CC3)nc2cc1OCCCN(C)C [UNC0224]
- pIC50: 7.82

pIC50: −log10 of the molar value.
